Consider one molecule from patent publication US20220142941A1, “COMBINATION THERAPEUTIC REGIMENS WITH 1,6-DIBROMO-1,6-DIDEOXY-DULCITOL” (Eleison Pharmaceuticals LLC, priority 2019, published 2022).

Values joined by “and” are separate entries in the source; they are usually repeats but may differ in a detail not shown here. Equal values may be shown once.

Assay in all cases: DBD combination treatment, viability enhancement factor
What all share (type): cell-based, human

One assay relates to GS104periNS. The procedure: (§1) Crystalline DBD polymorph treatment was combined with chemotherapy, radiotherapy and targeted inhibitors to determine whether the crystalline DBD polymorph form could: enhance efficacy of the conventional therapies; enhance efficacy when combined with newer ‘targeted’ therapies; or would make (a subset of) cultures more sensitive to this treatment.
(§2) Therefore, cultures were treated with: • a.

For the next assay, the system named is GS102periNS. As for the experimental part: as §1, §2
The test system of the next assay is GS289NS. As for the experimental part: as §1, §2
A further assay concerns GS281NS. The procedure:
as §1, §2

The next assay relates to GS261NS. The procedure:
as §1, §2

The subject of another assay is GS359NS. The procedure:
as §1, §2

A further assay deals with GS279periNS. The procedure:
as §1, §2

The subject of the next assay is GS324coreNS. The procedure: as §1, §2
In another assay the test system is GS257NS. The procedure:
as §1, §2

For a further assay, the system named is GS186periNS. As for the experimental part: as §1, §2
A further assay deals with GS323periNS. As for the experimental part:
as §1, §2

A further assay concerns GS245NS. As for the experimental part:
as §1, §2

The test system of a further assay is GS224NS. The procedure:
as §1, §2

The subject of a further assay is GS249NS. As for the experimental part: as §1, §2
A further assay relates to GS365NS. The procedure:
as §1, §2

For a further assay, the system named is GS184NS. As for the experimental part:
as §1, §2

The next assay deals with GS279coreNS. The procedure: as §1, §2

As to `CC(C)C[C@H](NC(=O)[C@H](Cc1ccccc1)NC(=O)c1cnccn1)B(O)O` [Bortezomib], the “enhancement factor (viability % of most effective monotherapy divided by viability % of combination)” value in the assay with GS104periNS is 0.984 and 1.374; in the assay on GS102periNS, 1.481 and 1.518; in the assay on GS289NS, 0.870 and 1.664; with GS281NS, 0.826 and 0.892; in the assay on GS261NS, 1.567 and 1.676; in the assay on GS359NS, 1.940 and 2.420. The “enhancement factor (viability % of most effective monotherapy divided by viability % of combination)” value in the assay with GS279periNS was 1.265 and 0.961; in the assay with GS324coreNS, 0.962 and 1.028; with GS257NS it was 0.970 and 0.978; with GS186periNS, 2.614; in the assay with GS323periNS, 1.060; with GS245NS, 1.043. For the same molecule, the “enhancement factor (viability % of most effective monotherapy divided by viability % of combination)” value with GS224NS is 0.954 and 1.011; in the assay with GS249NS it was 1.013 and 0.952; with GS365NS, 0.919 and 0.939; with GS184NS it was 0.542 and 0.639; in the assay with GS279coreNS, 2.252.
